Experiments:
[1] = tested on: HER2 Fo5 (MMTV-HER2) mammary tumor; test: Tumor growth inhibition, HER2 Fo5 model (FIGS. 6, 8); type: in vivo, CRL nu/nu mice
Method: For example, the in vivo efficacy of an anti-HER2 ADC of the invention can be measured by a high expressing HER2 transgenic explant mouse model (Phillips et al (2008) Cancer Res. 68:9280-90). […] Subjects were treated once with ADC at certain dose levels (mg/kg) and placebo buffer control (Vehicle) and monitored over two weeks or more to measure the time to tumor doubling, log cell kill, and tumor shrinkage.
The Fo5 mouse mammary tumor model was employed to evaluate the in vivo efficacy of antibody-drug conjugates of the invention after single dose intravenous injections, and as described previously (Phillips G D L, Li G M, Dugger D L, et al. Targeting HER2-Positive Breast Cancer with Trastuzumab-DM1, an Antibody-Cytotoxic Drug Conjugate. (2008) Cancer Res. 68:9280-90), incorporated by reference herein. Anti-Her2 ADC were tested with the Fo5 model, a transgenic mouse model in which the human HER2 gene is over-expressed in mammary epithelium under transcriptional regulation of the murine mammary tumor virus promoter (MMTV-HER2) as shown in FIGS. 3 and 5. The HER2 over-expression causes spontaneous development of a mammary tumor. The mammary tumor of one of these founder animals (founder #5 [Fo5]) has been propagated in subsequent generations of FVB mice by serial transplantation of tumor fragments (˜2×2 mm in size). […]

Bjab-luc xenograft = test: Tumor growth inhibition, Bjab-luc xenograft model (FIG. 3); type: in vivo, CB-17 Fox Chase SCID mice; conditions: 0.4 mg/kg, IV once
Method: (§1) The in vivo efficacy of antibody-drug conjugates (ADC) was measured by tumor growth inhibition in mice (Example 7). […] Efficacy of the ADC was correlated with target antigen expression of the tumor cells.
(§2) The efficacy of antibody-drug conjugates were measured in vivo by implanting allografts or xenografts of cancer cells in rodents and treating the tumors with ADC. Variable results are to be expected depending on the cell line, the specificity of antibody binding of the ADC to receptors present on the cancer cells, dosing regimen, and other factors. The in vivo efficacy of the ADC was measured using a transgenic explant mouse model expressing moderate to high levels of a tumor-associated antigen, such as Her2, CD22, and Ly6E. Subjects were treated once with ADC and monitored over 3-6 weeks to measure the time to tumor doubling, log cell kill, and tumor shrinkage. Follow up dose-response and multi-dose experiments were conducted.
(§3) Tumors were established and allowed to grow to 150-200 mm^3 in volume (as measured using calipers) before a single treatment on day 0. Tumor volume was measured using calipers according to the formula: V (mm^3)=0.5A×B^2, where A and B are the long and short diameters, respectively. […] Data collected from each experimental group (10 mice per group) were expressed as mean±SE.

[2] = Safety/tolerance in CD-1 mice, percent body weight change; type: in vivo; conditions: dosing at days 0, 7, 14; body weight change over 45 days
HER2 KPL4 tumor = test: Tumor growth inhibition, HER2 KPL4 tumor model (FIG. 7); type: in vivo, scid beige mice; conditions: FIG. 7, dosed IV once
Method: as §3
Inoculate n=150 mice with HER2 KPL-4 cells at 3 million cells/mouse suspended in HBSS/matrigel, in the thoracic mammary fat pad at a volume of 0.2 ml. When tumors have reached a mean tumor volume of 100-250 mm3, they will be grouped out into 10 groups of 8-10 mice each. A single treatment will be administered intravenously via the tail vein on Day 0. Volume not to exceed 0.3 ml, needle size 28 or 29 gauge.

WSU-DLCL2 cells = test: In vitro potency, cell viability (Table 5, FIG. 1B); type: cell-based, human
Method: (§4) The in vitro potency of antibody-drug conjugates (ADC) was measured by a cell proliferation assay (Example 6). […] Potency of the ADC was correlated with target antigen expression of the cells. The tested conjugates are capable of binding to the specific antigen expressed on the surface of cells and causing the death of those cells in vitro.
(§5) The CellTiter-Glo® Luminescent Cell Viability Assay is a commercially available (Promega Corp., Madison, Wis.), homogeneous assay method based on the recombinant expression of Coleoptera luciferase (U.S. Pat. Nos. 5,583,024; 5,674,713; 5,700,670). This cell proliferation assay determines the number of viable cells in culture based on quantitation of the ATP present, an indicator of metabolically active cells (Crouch et al (1993) J. Immunol. Meth. 160:81-88; U.S. Pat. No. 6,602,677). […]
(§6) The homogeneous “add-mix-measure” format results in cell lysis and generation of a luminescent signal proportional to the amount of ATP present. […] Viable cells are reflected in relative luminescence units (RLU). […]
(§7) Efficacy of ADC was measured by a cell proliferation assay employing the following protocol ([…] GLO™ Luminescent Cell Viability Assay, Promega Corp. Technical Bulletin TB288; Mendoza et al (2002) Cancer Res. 62:5485-5488). […] The plate was incubated at room temperature for 10 minutes to stabilize the luminescence signal. • 8. […]

Jurkat cells = test: In vitro potency, cell viability (Table 5, FIG. 1C); type: cell-based
Method: as §4, §5, §6, §7

BJAB cells = test: In vitro potency, cell viability (Table 5, FIG. 1A); type: cell-based
Method: as §4, §5, §6, §7

[3] = tested on: CD22-expressing WSU-DLCL2 xenograft; test: Tumor growth inhibition, WSU-DLCL2 xenograft model (FIGS. 4, 9); type: in vivo, CB-17 Fox Chase SCID mice; conditions: FIG. 4, 2 mg/kg, off-target Her2 controls
Method: as §1, §2, §3

[4] = Exploratory dose-escalation toxicology study in cynomolgus monkeys; type: in vivo, cynomolgus monkey; conditions: for maximum tolerated dose (MTD): IV
Method: An exploratory dose-escalation toxicology study was conducted in cynomolgus monkeys. Animals received two or four q3w slow IV bolus doses of anti-HER2 hu7C2 LC:K149C-LD-51 starting at a dose level of 1 mg/kg. Dose escalations were staggered by 2-3 weeks.
Toxicity was assessed by clinical and ophthalmic exams and clinical pathology (hematology, serum chemistry, coagulation and urinalysis; approximately weekly throughout the study). Gross and microscopic histopathology was conducted on tissues collected at necropsy three weeks after the last dose.

[5] = tested on: MMTV-HER2 Founder #5 (Fo5) murine mammary tumor allograft; test: Example 14 in vivo mouse allograft efficacy (FIG. 15); parameters: species or system nu/nu mice; conditions: single intravenous injection
Description: The efficacy of the anti-Her2 antibody-drug conjugates (ADCs) was investigated in a mouse allograft model of MMTV-HER2 Founder #5 (murine mammary tumor). The MMTV-HER2 Founder #5 (Fo5) model (developed at Genentech) is a transgenic mouse model in which the human HER2 gene, under transcriptional regulation of the murine mammary tumor virus promoter (MMTV-HER2), is overexpressed in mammary epithelium. The overexpression causes spontaneous development of mammary tumors that overexpress the human HER2 receptor. The mammary tumor from one of the founder animals (founder #5, Fo5) has been propagated in FVB mice (Charles River Laboratories) by serial transplantation of tumor fragments.
For efficacy studies, the Fo5 transgenic mammary tumor was surgically transplanted into the thoracic mammary fat pad of female nu/nu mice (Charles River Laboratories; Hollister, Calif.) as tumor fragments of approximately 15-30 mm^3 in size. When the allograft tumors reached an average tumor volume of 100-300 mm3 (referred to as Day 0), animals were randomized into groups of 7 mice each and received a single intravenous injection of the ADCs. Tumors and body weights of mice were measured 1-2 times a week throughout the study. […] Tumor volume was measured in two dimensions (length and width) using calipers and the tumor volume was calculated using the formula: Tumor size (mm^3)=0.5×(length×width×width).

[6] = four q3w doses of 16 mg/kg, histology

B1: ADC-201: Comparator ADC: Thio anti-Her2 hu7C2 LC K149C-(CLD-1); DAR 1.84 (conjugate)
heavy: EVQLVQSGAEVKKPGASVKVSCKASGYSFTGYWMNWVRQAPGQGLEWIGMIHPLDAEIRANQKFRDRVTITVDTSTSTAYLELSSLRSEDTAVYYCARGTYDGGFEYWGQGTLVTVSSASTKGPSVFPLAPSSKSTSGGTAALGCLVKDYFPEPVTVSWNSGALTSGVHTFPAVLQSSGLYSLSSVVTVPSSSLGTQTYICNVNHKPSNTKVDKKV[no letters for human IgG1 Fc]
light: DIVMTQSPDSLAVSLGERATINCRASQSVSGSRFTYMHWYQQKPGQPPKLLIKYASILESGVPDRFSGSGSGTDFTLTISSLQAEDVAVYYCQHSWEIPPWTFGQGTKVEIKRTVAAPSVFIFPPSDEQLKSGTASVVCLLNNFYPREAKVQWCVDNALQSGNSQESVTEQDSKDSTYSLSSTLTLSKADYEKHKVYACEVTHQGLSSPVTKSFNRGEC
[1]; FIG. 6, dosed IV once
  tumor inhibition: tumor inhibition and dose-dependent effects
Bjab-luc xenograft
  TGI: 36%
[2]
  maximum tolerated dose (MTD): 75 µg/kg
HER2 KPL4 tumor
  tumor inhibition: tumor inhibition and dose-dependent effects

B2: ADC-108: Thio Hu-Anti-Her2 hu7C2 LC K149C-(LD-52); DAR 1.99 (conjugate)
heavy: B1 heavy
light: B1 light
WSU-DLCL2 cells
  IC50: 11.3 nM
  WSU-DLCL2 IC50: 1689.31 ng/mL
Jurkat cells
  IC50: 8.96 nM
  Jurkat IC50: 1342.60 ng/mL
BJAB cells
  BJAB IC50: 1268.70 ng/mL
  IC50: 8.46 nM
[1]; FIG. 8, dosed IV once
  tumor inhibition: tumor inhibition and dose-dependent effects
[3]
  TGI: ~30%
[2]
  maximum tolerated dose (MTD): 200 µg/kg

B3: Anti-HER2 hu7C2 LC:K149C-LD-51: ADC of anti-HER2 hu7C2 LC:K149C antibody with LD-51; Table 9 lists it under its linker-drug; DAR 1.9 (conjugate)
heavy: B1 heavy
light: B1 light
[4]; 2×q3w regimen
  maximum tolerated dose (MTD): 16 mg/kg
[4]; 4×q3w regimen
  maximum tolerated dose (MTD): 8 mg/kg
[4]; cynomolgus monkey, in vivo
  major target organs: kidney, bone marrow, skin, lung, lymphoid organs (spleen, thymus, lymph nodes), small intestine, and eye (cornea)
[4]; [6]
  lung alveolar degeneration/fibroplasia: mild
  lymphoid depletion (thymus, spleen, lymph nodes): mild-moderate
  renal tubular degeneration: mild-moderate
  skin pigmentation/hyperkeratosis: mild
  small intestine mucosa finding: mild
[5]
  anti-tumor activity compared to the vehicle group: clear anti-tumor activity

Source: US10639373B2, “Pyrrolobenzodiazepine antibody drug conjugates and methods of use” (priority 2015, dated 2020)
